In doi:10.1101/2023.04.08.536099 (bioRxiv, 2023):

Biological target: T1, CD40L (UniProt P29965 1-261)
T1 sequence (looked up): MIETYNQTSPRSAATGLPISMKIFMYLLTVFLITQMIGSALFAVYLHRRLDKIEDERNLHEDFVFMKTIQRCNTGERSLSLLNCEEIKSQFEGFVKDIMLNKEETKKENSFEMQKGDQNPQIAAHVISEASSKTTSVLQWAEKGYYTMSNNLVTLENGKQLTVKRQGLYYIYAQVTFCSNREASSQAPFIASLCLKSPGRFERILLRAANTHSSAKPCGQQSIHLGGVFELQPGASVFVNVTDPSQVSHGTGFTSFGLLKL
Assay: proximity labelling

labeling ratio (OF1 probe): 63.9%
labeling ratio (OF2 probe): 50.3%
B1: CD40 (receptor, UniProt P25942 21-277, looked up)
chain: EPPTACREKQYLINSQCCSLCQPGQKLVSDCTEFTETECLPCGESEFLDTWNRETHCHQHKYCDPNLGLRVQQKGTSETDTICTCEEGWHCTSEACESCVLHRSCSPGFGVKQIATGVSDTICEPCPVGFFSNVSSAFEKCHPWTSCETKDLVVQQAGTNKTDVVCGPQDRLRALVVIPIIFGILFAILLVLVFIKKVAKKPTNKAPHPKQEPQEINFPDDLPGSNTAAPVQETLHGCQPVTQEDGKESRISVQERQ
